{"sequences": {"note": "The chains behind the UniProt entries cited, without tags or fusion partners.", "UniProt P05107, whole entry, looked up": "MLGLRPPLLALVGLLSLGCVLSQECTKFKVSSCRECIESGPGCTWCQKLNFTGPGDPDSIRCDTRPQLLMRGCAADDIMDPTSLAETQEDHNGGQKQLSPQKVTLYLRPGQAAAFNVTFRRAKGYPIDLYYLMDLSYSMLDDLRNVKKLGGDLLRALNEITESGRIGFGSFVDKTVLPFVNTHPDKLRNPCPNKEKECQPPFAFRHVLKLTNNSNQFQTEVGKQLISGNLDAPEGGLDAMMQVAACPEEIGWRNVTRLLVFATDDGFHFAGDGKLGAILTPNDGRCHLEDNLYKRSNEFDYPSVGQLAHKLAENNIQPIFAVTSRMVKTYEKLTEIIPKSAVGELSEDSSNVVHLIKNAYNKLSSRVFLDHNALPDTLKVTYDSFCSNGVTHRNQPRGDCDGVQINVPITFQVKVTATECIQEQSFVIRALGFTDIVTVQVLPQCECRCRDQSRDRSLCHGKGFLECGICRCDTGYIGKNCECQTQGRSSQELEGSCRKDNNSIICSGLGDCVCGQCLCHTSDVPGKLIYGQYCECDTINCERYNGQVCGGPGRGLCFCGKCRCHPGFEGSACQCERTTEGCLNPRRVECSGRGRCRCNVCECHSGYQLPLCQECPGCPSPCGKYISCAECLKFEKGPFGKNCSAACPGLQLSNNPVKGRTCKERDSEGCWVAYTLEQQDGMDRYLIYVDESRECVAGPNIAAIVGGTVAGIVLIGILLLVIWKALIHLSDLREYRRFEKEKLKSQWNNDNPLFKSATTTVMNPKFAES"}, "source": "PubChem BioAssay AID1499", "about": "(Sanford-Burnham Center for Chemical Genomics, 2009)", "note": "The entries are a selection whose mix differs from that of the whole data set. Activity calls are given as the source filed them.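 How the source made its calls: active means 10 µM primary screen giving 50% or more activity, confirmed by 40% or more on retest at that dose; inactive means the rest.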"}
{"target": "Integrin beta-2 (Homo sapiens) + Integrin alpha-M (Homo sapiens) (UniProt P05107+P11215)", "experiment": "enhancers of CD11b/CD18 adhesion to fibrinogen, primary screen, K562 cells, luminescence (AID 1499)", "settings": "ATPlite luminescence, at 10 µM, stronger effect = higher value"}
{"smiles": "Oc1ccccc1CNc1ccccn1", "activation": "inactive: -1.4%"}
{"smiles": "Cc1c2non([O-])c-2c(C)[n+](=O)[n+]1[O-]", "activation": "inactive: -4.2%"}
{"smiles": "CCN(N=Nc1nonc1N)c1nonc1N", "activation": "inactive: 3%"}
{"smiles": "CCOP(=O)(Nc1ccccc1)OCC", "activation": "inactive: -4.4%"}
{"smiles": "Cc1cc(SC(NC(=O)c2ccc(F)cc2)C(Cl)(Cl)Cl)ncn1", "note": "(centres undefined)", "activation": "inactive: 4.7%"}
{"smiles": "O=[N+]([O-])c1cccc2n[nH]nc12", "activation": "inactive: -3.9%"}
{"smiles": "CCc1nc2c(n1)c1c(non1O)c1c2no[n+]1[O-]", "activation": "inactive: 6.7%"}
{"smiles": "CC(C)C(=O)NC(Sc1ccccc1)C(Cl)(Cl)Cl", "note": "(centres undefined)", "activation": "inactive: 1.9%"}
{"smiles": "O=P(Nc1nccs1)(c1ccccc1)c1ccccc1", "activation": "inactive: -0.1%"}
{"smiles": "c1nnnn1CCn1cnnn1", "activation": "inactive: 0.6%"}
{"smiles": "O=C(OC1CN2CCC1CC2)c1cccc(Cl)c1", "note": "(centres undefined)", "activation": "inactive: -2.8%"}
{"smiles": "O=P1(Nc2nc3ccc(Cl)cc3s2)COc2ccccc2O1", "note": "(centres undefined)", "activation": "inactive: 0.3%"}
{"smiles": "Cc1ccc(NCCc2c([N+](=O)[O-])cc([N+](=O)[O-])cc2[N+](=O)[O-])cc1", "activation": "inactive: -0.3%"}
{"smiles": "Cc1cccc(OCC(=O)OC2CN3CCC2CC3)c1", "note": "(centres undefined)", "activation": "inactive: -4.3%"}
{"smiles": "O=[N+]([O-])c1ccc2c(c1)nnn2O", "activation": "inactive: -3.8%"}
{"smiles": "CCOP1(=S)c2c(C)nn(CCC#N)c2N=C(c2ccc(F)cc2)N1C", "note": "(centres undefined)", "activation": "inactive: -4.9%"}
{"smiles": "O=P1(Nc2ncccn2)COc2ccccc2OC1", "activation": "inactive: 2.9%"}
{"smiles": "O=P1(Nc2ccc(Br)cn2)COc2ccccc2OC1", "activation": "inactive: -4.3%"}
{"smiles": "Cc1ccc(OCC(=O)OC2CN3CCC2CC3)cc1", "note": "(centres undefined)", "activation": "inactive: -1.5%"}
{"smiles": "Cc1nn(-c2ccccc2)c2c1P(=O)(N1CCOCC1)N(C)C(c1ccccc1)=N2", "note": "(centres undefined)", "activation": "inactive: 12.2%"}
{"smiles": "O=P1(Nc2ccccn2)COc2ccccc2OC1", "activation": "inactive: 6.2%"}
{"smiles": "Clc1n[nH]nc1-c1nn[nH][15n]1", "activation": "inactive: -5.1%"}
{"smiles": "COP1(=S)c2c(C)nn(CCC#N)c2N=C(c2ccc(F)cc2)N1C", "note": "(centres undefined)", "activation": "inactive: 3.9%"}
{"smiles": "O=C(COc1ccccc1)OC1CN2CCC1CC2", "note": "(centres undefined)", "activation": "inactive: 1.4%"}
{"smiles": "Cc1cc(SC(NC(=O)c2ccccc2)C(Cl)(Cl)Cl)nc(C(C)C)n1", "note": "(centres undefined)", "activation": "inactive: -3%"}
{"smiles": "CCN(CC)C(=S)SC(NC=O)C(Cl)(Cl)Cl", "note": "(centres undefined)", "activation": "inactive: 0.3%"}
{"smiles": "Cc1ccc2nc3c(c(C)c2c1)CC(C(Cl)Cl)S3", "note": "(centres undefined)", "activation": "inactive: -0.2%"}
{"smiles": "O=C(OC1CN2CCC1CC2)C12CC3CC(CC(C3)C1)C2", "note": "(centres undefined)", "activation": "inactive: 0.3%"}
{"smiles": "Cc1c2c(nc3ccccc13)SC(C(Cl)Cl)C2", "note": "(centres undefined)", "activation": "inactive: 6.5%"}
